Chains of the proteins cited; added tags and fusions are not shown. Lines headed by an entry give the natural chain unless they say otherwise; changes in a name come on top.
UniProt P11388: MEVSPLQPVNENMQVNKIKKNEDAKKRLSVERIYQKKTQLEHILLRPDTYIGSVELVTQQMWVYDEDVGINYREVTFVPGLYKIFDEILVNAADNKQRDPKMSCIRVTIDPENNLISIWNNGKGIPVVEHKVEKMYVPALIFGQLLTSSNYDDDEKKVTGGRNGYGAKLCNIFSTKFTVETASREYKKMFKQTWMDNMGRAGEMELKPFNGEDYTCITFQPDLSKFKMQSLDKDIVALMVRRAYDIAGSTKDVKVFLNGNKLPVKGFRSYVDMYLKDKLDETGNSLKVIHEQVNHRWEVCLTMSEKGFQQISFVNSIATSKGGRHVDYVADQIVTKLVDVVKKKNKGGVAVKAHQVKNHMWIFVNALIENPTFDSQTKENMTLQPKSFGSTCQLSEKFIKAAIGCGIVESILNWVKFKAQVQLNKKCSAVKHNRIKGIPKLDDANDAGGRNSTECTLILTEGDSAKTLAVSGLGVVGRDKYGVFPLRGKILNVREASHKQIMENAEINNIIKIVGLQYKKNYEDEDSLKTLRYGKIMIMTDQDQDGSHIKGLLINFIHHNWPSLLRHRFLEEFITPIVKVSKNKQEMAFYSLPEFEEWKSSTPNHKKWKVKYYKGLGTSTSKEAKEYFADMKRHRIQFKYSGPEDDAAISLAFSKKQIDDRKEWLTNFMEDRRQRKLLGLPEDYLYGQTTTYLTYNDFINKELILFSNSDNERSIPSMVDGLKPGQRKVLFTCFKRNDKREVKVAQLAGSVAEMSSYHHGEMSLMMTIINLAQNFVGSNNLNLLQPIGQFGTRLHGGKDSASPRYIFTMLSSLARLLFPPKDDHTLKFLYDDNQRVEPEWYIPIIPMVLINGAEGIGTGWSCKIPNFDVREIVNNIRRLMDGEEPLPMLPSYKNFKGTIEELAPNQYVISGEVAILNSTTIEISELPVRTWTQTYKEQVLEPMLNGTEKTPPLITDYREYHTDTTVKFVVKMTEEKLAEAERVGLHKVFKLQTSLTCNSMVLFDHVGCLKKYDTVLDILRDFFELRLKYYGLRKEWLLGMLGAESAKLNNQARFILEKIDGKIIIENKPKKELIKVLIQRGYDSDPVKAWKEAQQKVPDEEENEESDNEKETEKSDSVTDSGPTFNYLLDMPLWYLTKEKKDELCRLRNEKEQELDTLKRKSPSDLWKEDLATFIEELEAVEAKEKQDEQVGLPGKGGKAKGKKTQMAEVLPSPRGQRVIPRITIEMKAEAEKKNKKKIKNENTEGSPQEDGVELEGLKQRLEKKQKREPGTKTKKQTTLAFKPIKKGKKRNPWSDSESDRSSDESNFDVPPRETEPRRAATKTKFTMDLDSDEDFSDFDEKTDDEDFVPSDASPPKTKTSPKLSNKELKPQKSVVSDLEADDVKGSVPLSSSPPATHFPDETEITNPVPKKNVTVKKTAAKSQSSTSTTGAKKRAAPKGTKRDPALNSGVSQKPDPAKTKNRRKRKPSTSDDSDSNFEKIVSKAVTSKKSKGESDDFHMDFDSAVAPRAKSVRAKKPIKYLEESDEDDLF

According to publication PMC8306828, “Ruthenium(II) and Platinum(II) Complexes with Biologically Active Aminoflavone Ligands Exhibit In Vitro Anticancer Activity” (International Journal of Molecular Sciences, 2021):

Molecular target: T1, human topoisomerase II (Homo sapiens, UniProt P11388)
T1 construct: purchased TopoGen, Buena Vista, CO, USA
Test: Topoisomerase II drug screening (plasmid based), gel electrophoresis
Format: biochemical
Conditions: scDNA + topo2; tested compounds 10-20 µM, etoposide 100 µM

In the case of `COc1cc([C@@H]2c3cc4c(cc3[C@@H](O[C@@H]3O[C@@H]5CO[C@@H](C)O[C@H]5[C@H](O)[C@H]3O)[C@H]3COC(=O)[C@H]23)OCO4)cc(OC)c1O` [etoposide], the “inhibition of topoisomerase II / DNA band pattern” value is reported as “presence of linear DNA”.
